The text below walks through data of patent publication US10093660B2, “Sulfoximine substituted quinazolines for pharmaceutical compositions” (EVOTEC INTERNATIONAL GMBH, priority 2013, dated 2018).

By UniProt entry, the sequences of proteins in these tests, tags left out. Where a name states a change or a piece, a line headed by the entry shows the natural chain unless it says otherwise. Chains listed by the source or under a name are the forms on record and can include a tag or linker.
UniProt Q9HBH9: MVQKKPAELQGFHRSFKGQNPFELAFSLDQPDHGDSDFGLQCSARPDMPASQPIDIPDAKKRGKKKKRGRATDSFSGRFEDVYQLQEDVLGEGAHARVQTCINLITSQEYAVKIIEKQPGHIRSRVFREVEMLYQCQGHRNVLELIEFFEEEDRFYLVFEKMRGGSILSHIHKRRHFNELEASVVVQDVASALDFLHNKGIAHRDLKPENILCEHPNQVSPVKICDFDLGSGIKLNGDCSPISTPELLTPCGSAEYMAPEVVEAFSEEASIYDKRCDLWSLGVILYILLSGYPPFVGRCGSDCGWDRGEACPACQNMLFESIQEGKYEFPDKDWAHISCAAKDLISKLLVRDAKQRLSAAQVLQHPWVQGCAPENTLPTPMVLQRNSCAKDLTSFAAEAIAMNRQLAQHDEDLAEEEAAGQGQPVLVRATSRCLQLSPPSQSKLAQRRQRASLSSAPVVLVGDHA
UniProt Q9BUB5, other isoform, or with tags, fused parts or gaps: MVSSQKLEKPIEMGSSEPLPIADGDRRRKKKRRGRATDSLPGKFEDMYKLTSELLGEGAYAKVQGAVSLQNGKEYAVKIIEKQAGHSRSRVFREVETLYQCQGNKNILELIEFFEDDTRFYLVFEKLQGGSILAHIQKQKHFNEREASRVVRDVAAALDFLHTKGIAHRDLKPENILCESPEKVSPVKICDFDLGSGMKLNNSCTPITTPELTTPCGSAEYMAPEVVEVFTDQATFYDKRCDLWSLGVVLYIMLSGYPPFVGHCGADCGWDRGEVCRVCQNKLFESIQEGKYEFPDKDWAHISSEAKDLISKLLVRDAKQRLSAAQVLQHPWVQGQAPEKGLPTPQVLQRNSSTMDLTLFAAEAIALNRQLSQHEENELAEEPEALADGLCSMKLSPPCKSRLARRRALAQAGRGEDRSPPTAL

The first assay concerns the target MNK2a (Homo sapiens (Human), UniProt Q9HBH9). Nature of the assay: MNK2a in vitro kinase assay (Assay 2), ADP-Glo. As to conditions: read-out: MNK2 IC50. The class given is biochemical. The source says:
B. MNK2a In Vitro Kinase Assay (Assay 2)
As usually defined, the IC50 is the midpoint of a concentration-inhibition curve. On to `CO[C@H]1COC[C@H]1Oc1ncccc1Nc1ncnc2cc(N=S(C)(C)=O)cc(C)c12` (racemic) [Example 2.1], for which the IC50 stood at 22 nM. As for `Cc1cc(N=S2(=O)CCCCC2)cc2ncnc(Nc3cccnc3O[C@H]3COC[C@H]3O)c12` (racemic) [Example 2.31], the IC50 turned out to be 16 nM.

As to `O=S1(=Nc2cc(F)c3c(Nc4cccnc4O[C@H]4COC[C@H]4O)ncnc3c2)CCC1` (racemic) [Example 2.33], the IC50 came out at 7 nM. Consider `CO[C@@H]1COC[C@H]1Oc1ncccc1Nc1ncnc2cc(N=S(C)(C)=O)cc(C)c12` (racemic) [Example 2.34], for which the IC50 is 24 nM. Still for that read-out and setting: the same measure for `CO[C@@H]1COC[C@H]1Oc1ncccc1Nc1ncnc2cc(N=S3(=O)CCC3)cc(C)c12` (racemic) [Example 2.35]: 9 nM; for `CO[C@@H]1CC[C@@H](Oc2cc(F)ccc2Nc2ncnc3cc(N=S(C)(C)=O)cc(C)c23)CO1` (racemic) [Example 2.63]: 2 nM; for `Cc1cc(N=S2(=O)CCC2)cc2ncnc(Nc3ccc(F)cc3O[C@@H]3COC[C@@H]3O)c12` (single isomer, unassigned) [Example 1.36]: 3 nM. `Cc1cc(N=S2(=O)CCC2)cc2ncnc(Nc3ccc(F)cc3O[C@H]3COC[C@H]3O)c12` (single isomer, unassigned) [Example 1.37]: the IC50 came out at 3 nM. In the case of `Cc1cc(N=S2(=O)CCCC2)cc2ncnc(Nc3cccnc3O[C@@H]3COC[C@@H]3O)c12` (single isomer, unassigned) [Example 14.3], the concentration for half-maximal inhibition (IC50) turned out to be 19 nM.

In the case of `Cc1cc(N=S2(=O)CCCC2)cc2ncnc(Nc3cccnc3O[C@H]3COC[C@H]3O)c12` (single isomer, unassigned) [Example 14.4], the IC50 stood at 2 nM.

On to `Cc1cc(N=S2(=O)CCCC2)cc2ncnc(Nc3cccnc3O[C@H]3COC[C@@H]3O)c12` [Example 2.24], for which the IC50 stood at 4 nM. On the same count and under the same terms, in the case of `Cc1cc(N=S(C)(C)=O)cc2ncnc(Nc3ccc(F)cc3O[C@H]3COC[C@@H]3O)c12` [Example 2.27] it was 4 nM. Still for that read-out and setting: in the case of `Cc1cc(N=S2(=O)CCC2)cc2ncnc(Nc3ccc(F)cc3O[C@H]3COC[C@@H]3O)c12` [Example 2.36] it was 3 nM; in that of `Cc1cc(N=S2(=O)CCC2)cc2ncnc(Nc3cccnc3O[C@H]3COC[C@@H]3O)c12` [Example 2.41], 2 nM. As to `O=S1(=Nc2cc(F)c3c(Nc4cccnc4O[C@H]4COC[C@@H]4O)ncnc3c2)CCCC1` [Example 2.44], the IC50 is 4 nM. With `Cc1cc(N=S(C)(C)=O)cc2ncnc(Nc3ccc(F)cc3O[C@H]3COC[C@@H]3O)c12` [Example 2.45], the 50% inhibitory concentration (IC50) amounted to 7 nM.

For the compound `Cc1cc(N=S2(=O)CCC2)cc2ncnc(Nc3ccc(F)cc3O[C@@H]3COC[C@H]3O)c12` [Example 2.47], the concentration for half-maximal inhibition (IC50) stood at 3 nM. As for `Cc1cc(N=S2(=O)CCC2)cc2ncnc(Nc3cccnc3O[C@@H]3COC[C@H]3O)c12` [Example 2.49], the IC50 worked out at 6 nM. For the compound `O=S1(=Nc2cc(F)c3c(Nc4ccc(F)cc4O[C@H]4COC[C@@H]4O)ncnc3c2)CCCC1` [Example 2.66], the IC50 was 3 nM.

As for `Cc1cc(N=S(C)(=O)C2CC2)cc2ncnc(Nc3ccc(F)cc3O[C@H]3COC[C@@H]3O)c12` (stereo partly drawn) [Example 2.77], the IC50 amounted to 8 nM.

In the next assay the target is MNK1a (Homo sapiens (Human), UniProt Q9BUB5). The assay can be described thus: MNK1 in vitro kinase assay (Assay 3), Z'-LYTE. The class given is biochemical.
Settings: not given
The text has this:
C. MNK1 In Vitro Kinase Assay (Assay 3)
MNK1 Data can be obtained from the MNK1 Z′-LYTE® assay. The MNK1 Z′-LYTE® screening protocol and assay conditions are also described on www.invitrogen.com.
The assay is described as follows:
The Z′-LYTE® biochemical assay employs a fluorescence-based, coupled-enzyme format and is based on the differential sensitivity of phosphorylated and non-phosphorylated peptides to proteolytic cleavage. The peptide substrate is labeled with two fluorophores—one at each end—that make up a FRET pair.
In the primary reaction, the kinase transfers the gamma-phosphate of ATP to a single tyrosine, serine or threonine residue in a synthetic FRET-peptide. In the secondary reaction, a site-specific protease recognizes and cleaves non-phosphorylated FRET-peptides. […] A ratiometric method, which calculates the ratio (the Emission Ratio) of donor emission to acceptor emission after excitation of the donor fluorophore at 400 nm, is used to quantitate reaction progress, as shown in the equation below. […]
9. Read on fluorescence plate reader and analyze the data […]
SelectScreen® Kinase Profiling Service uses XLfit from IDBS. […] The activity of a candidate agent can then be determined via its ability to decrease the enzymatic activity of the MNK protein. The kinase activity may be detected by change of the chemical, physical or immunological properties of the substrate due to phosphorylation.
With `Cc1cc(N=S(C)(C)=O)cc2ncnc(Nc3cccnc3O[C@H]3COC[C@H]3OCCF)c12` (racemic) [Example 2.26], half-maximal inhibition (IC50) required 100 nM.
